Earlier results on one substance are cited in US20070135514A1, “Methods for the identification of agents for the treatment of seizures, neurological diseases, endocrinopathies and hormonal diseases” (priority 2002, published 2007).

By UniProt entry, the sequences of proteins in these tests, tags left out.
UniProt Q02563, whole entry: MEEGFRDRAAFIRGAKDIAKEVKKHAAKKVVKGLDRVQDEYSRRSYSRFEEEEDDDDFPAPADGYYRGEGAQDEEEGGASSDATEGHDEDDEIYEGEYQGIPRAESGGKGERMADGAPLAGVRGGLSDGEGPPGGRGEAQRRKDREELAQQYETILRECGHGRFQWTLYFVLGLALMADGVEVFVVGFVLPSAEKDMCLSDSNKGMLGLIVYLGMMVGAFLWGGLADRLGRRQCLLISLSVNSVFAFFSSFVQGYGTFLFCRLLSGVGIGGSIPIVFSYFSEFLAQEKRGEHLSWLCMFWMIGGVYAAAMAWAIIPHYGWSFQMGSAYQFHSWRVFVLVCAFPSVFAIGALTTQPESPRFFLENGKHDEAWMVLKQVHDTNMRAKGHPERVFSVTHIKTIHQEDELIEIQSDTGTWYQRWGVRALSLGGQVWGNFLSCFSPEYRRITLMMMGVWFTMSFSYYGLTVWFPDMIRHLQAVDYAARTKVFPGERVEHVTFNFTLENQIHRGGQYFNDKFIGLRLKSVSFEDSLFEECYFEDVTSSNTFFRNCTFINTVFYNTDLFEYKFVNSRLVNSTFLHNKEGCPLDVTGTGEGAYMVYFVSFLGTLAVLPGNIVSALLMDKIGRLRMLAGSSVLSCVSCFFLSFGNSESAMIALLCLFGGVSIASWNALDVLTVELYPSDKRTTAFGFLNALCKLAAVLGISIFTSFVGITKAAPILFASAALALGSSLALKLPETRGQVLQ

This data set concerns the target levetiracetam binding site (LBS) (Rattus norvegicus, UniProt Q02563). As to conditions: cited from earlier work.

Consider t-butylbicyclophosphorothionate, for which the “displacement of LEV binding” value was “do not displace LEV binding”.
